In patent US20200155567A1, “TREATMENT OF CANCERS USING A COMBINATION COMPRISING PARP INHIBITORS, TEMOZOLOMIDE AND/OR RADIATION THERAPY” (BEIGENE, LTD., priority 2017, published 2020):

Test system: H209-T small cell lung cancer xenografts
Assay: H209-T intracranial tumor model
Type: in vivo, nude mice
Details: Compound B 2.73 mg/kg BID; TMZ 50 mg/kg; vehicle 22.5 days
From the text: H209-T is a TMZ-resistant cell line generated by treating H209-xenografted tumors with multiple cycles of TMZ in vivo.

Cn1nnc2c(C(N)=O)ncn2c1=O [TMZ, temozolomide]
median survival: 26.5 days

C[C@]12CCCN1CC1=NNC(=O)c3cc(F)cc4[nH]c2c1c34 [Compound B, (R)-2-fluoro-10a-methyl-7,8,9,10,10a,11-hexahydro-5,6,7a,11-tetraazacyclohepta[def]cyclopenta[a]fluoren-4(5H)-one sesqui-hydrate]
median survival: 24 days
